In ChEMBL document CHEMBL1944510, “Potent galloyl-based selective modulators targeting multidrug resistance associated protein 1 and P-glycoprotein” (J Med Chem, 2012) one finds IC50 data, which are given here for 1 molecule.

Protein sequences, listed by entry. Tags and fused reporters are not part of them.
UniProt P08183, whole entry: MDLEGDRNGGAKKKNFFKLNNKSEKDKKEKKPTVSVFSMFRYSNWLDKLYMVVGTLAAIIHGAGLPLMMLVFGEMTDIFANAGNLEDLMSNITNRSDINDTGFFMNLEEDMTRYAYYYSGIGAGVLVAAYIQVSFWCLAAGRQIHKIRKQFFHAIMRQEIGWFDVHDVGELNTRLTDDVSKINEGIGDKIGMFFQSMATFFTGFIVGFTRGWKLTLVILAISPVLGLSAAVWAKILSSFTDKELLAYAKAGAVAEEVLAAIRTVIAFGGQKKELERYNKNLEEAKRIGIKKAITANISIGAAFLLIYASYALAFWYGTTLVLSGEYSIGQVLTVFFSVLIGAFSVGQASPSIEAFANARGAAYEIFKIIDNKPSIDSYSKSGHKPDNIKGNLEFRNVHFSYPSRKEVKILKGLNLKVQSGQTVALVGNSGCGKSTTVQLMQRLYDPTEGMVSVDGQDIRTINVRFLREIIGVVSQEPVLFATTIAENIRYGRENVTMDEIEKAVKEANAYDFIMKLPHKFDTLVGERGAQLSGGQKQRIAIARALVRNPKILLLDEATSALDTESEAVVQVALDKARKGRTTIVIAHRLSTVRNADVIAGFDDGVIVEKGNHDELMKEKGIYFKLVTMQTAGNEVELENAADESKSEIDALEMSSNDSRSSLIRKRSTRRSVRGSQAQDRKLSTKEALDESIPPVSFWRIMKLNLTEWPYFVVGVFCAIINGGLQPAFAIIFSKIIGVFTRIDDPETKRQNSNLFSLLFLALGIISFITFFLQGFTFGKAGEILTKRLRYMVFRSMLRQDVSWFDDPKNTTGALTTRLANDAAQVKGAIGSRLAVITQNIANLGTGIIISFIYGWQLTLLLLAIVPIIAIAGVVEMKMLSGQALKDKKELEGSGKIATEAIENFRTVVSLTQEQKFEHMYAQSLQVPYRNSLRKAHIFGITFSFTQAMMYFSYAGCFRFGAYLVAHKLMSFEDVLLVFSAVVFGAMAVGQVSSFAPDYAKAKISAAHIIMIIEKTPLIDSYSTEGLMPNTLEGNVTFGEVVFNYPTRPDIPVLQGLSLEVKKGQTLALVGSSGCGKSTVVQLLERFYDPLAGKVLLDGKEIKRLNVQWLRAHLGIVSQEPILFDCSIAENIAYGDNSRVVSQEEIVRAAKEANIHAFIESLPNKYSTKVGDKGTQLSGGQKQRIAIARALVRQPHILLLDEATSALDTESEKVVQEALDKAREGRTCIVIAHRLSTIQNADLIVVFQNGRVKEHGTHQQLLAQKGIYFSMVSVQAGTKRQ

This test deals with ATP-dependent translocase ABCB1 (Homo sapiens, UniProt P08183). The experiment in a line: Inhibition of human MDR1 expressed in MDCK cells assessed as calcein AM accumulation after 30 mins by fluorescence assay. The format is cell-based.

For orientation: IC50 means the point on the concentration scale where inhibition reaches its midpoint. Regarding `COc1cc(C(=O)Nc2ccc(-c3cc(F)cc(F)c3)cc2[N+](=O)[O-])cc(OC)c1OC`, the half-maximal inhibitory concentration (IC50) is 2600 nM.
